High-throughput results: PubChem, National Center for Advancing Translational Sciences (NCATS)
Nrf2 ARE act – Nrf2 pathway activation. AID 624171. AREc32 ARE-luciferase reporter (MCF7-derived line), luminescence, 24 h. Potency, µM (doses to about 46.1 µM), actives largely listed as activators. hit rate 0.31% among 410,000; also: nearly all actives have a fitted effect of over 65% in size
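Reporter line AREc32 (ARE-Fluc), seeded overnight in OPTI-MEM with 5% FBS; compound pin-transferred, 24 hr at 37 deg C, 5% CO2; luminescent read-out.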
miR-21 reporter – miR-21 reporter, rising signal; HeLa miR-21 FLuc reporter, luciferase, 48 h; Potency, µM (doses to about 38.3 µM); 340,000 tested, under 10 active; AID 2288; active = well fitted rising curve with a large enough effect; inconclusive = small, poorly fitted or top-dose-only effect; inactive = no such curve, though single readings can be large or run the other way;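 further: miR-21 action dims this reporter so a rising signal means less miR-21 action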
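Using DMEM plus 10% FBS, HeLa miR-21-FLuc cells are incubated with test compounds (final up to about 40uM) for 48 hours; firefly luciferase signal is then imaged following reagent-mediated lysis.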
ClpP mod – qHTS Assay for Activators of ClpP | Potency, µM (top dose mostly 57.5 µM) | hit rate 1.9% among 340,000 | purified B. subtilis ClpP, FRET peptide cleavage, 20 min; active = well fitted falling curve with a large enough effect; inconclusive = small, poorly fitted or top-dose-only effect; inactive = no such curve, though single readings can be large or run the other way; also: the source files actives as falling curves though it sought activators and does not explain the sign; nearly all actives have a fitted effect of over 65% in size
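Purified B. subtilis ClpP, 10 microg/mL final in Tris/HCl pH8 with KCl, BSA, glycerol and Tween-20, cleaved an Abz/nitrotyrosine-quenched decapeptide. Fluorescence (ex 320, em 430) was read at 0 and 20 min at room temperature. Delta was normalized to 5.8 microM ADEP and DMSO/no-enzyme controls.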
p53 reactivation – mutant p53 re-activation in reporter cells. H1299 p53-A138V BP100-luciferase reporter, luminescence, 24 h. Potency, µM (series often up to 92.2 µM), usual class: activators. hit rate 0.063% among 320,000; also: nearly all actives have a fitted effect of over 45% in size
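p53-null H1299 cells stably carrying temperature-sensitive p53-A138V and a BP100-luciferase reporter were pinned with compounds (4-point, 1:5 series) and held 24 hrs at 37 deg C. Luminescence was read 10 min after detection reagent.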
Nrf2 inh – Nrf2 pathway inhibition; A549 ARE-Fluc reporter, luciferase luminescence, 18-24 h; Potency, µM (highest dose often 46 µM), most hits filed as inhibitors; hit rate 2.1% among 360,000; AID 504444; also: nearly all actives have a fitted effect of over 60% in size
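Concentration-response testing used A549 ARE_Fluc cells at 5000 cells/well. Following an 18-24 h compound incubation, viability was read by fluorescence (Ex 405/Em 525) and luciferase output by luminescence.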
A549 tox – A549 cytotoxicity, counter-screen for Nrf2 inhibitors; Potency, µM (top dose mostly 46 µM), actives largely listed as inhibitors; AID 504648; hit rate 0.16% among 390,000; A549 ARE-Fluc cells, CellTiter-Fluor viability, 18-24 h
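A549 ARE-Fluc cells in 5% FBS OPTI-MEM, 5000 cells/well, rested 2 h then exposed to compounds in concentration-response for 18-24 h at 37 °C. Viability by CellTiter-Fluor fluorescence (Ex 405/Em 525) after 30 min; luciferase luminescence (BugLite, 15 min, RT) read afterwards.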
Each line names hits and unclear results; the compound was inactive in the other large screens; ! = not confirmed by another sample. Sampled rows, rich in hits. Any-hit rate of the full collection: about 3.7%. Unless noted, calls follow the shape of the dose curve; as a rule, active = well fitted curve in the direction sought with a large enough effect; inconclusive = small, poorly fitted or top-dose-only effect, or another doubt; inactive = no such curve, though single readings can be large; an effect the other way counts as inactive or inconclusive.

COc1cc(/C=C/C(=O)Nc2nnc(C(C)(C)C)s2)cc(OC)c1OC	ClpP mod 31.6µM
COc1cc(/C=C/C(=O)Nc2nc3ccc(S(=O)(=O)N(C)C)cc3s2)cc(OC)c1OC	ClpP mod 7.94µM
COc1cc(C(=O)Nc2nc3ccc(S(=O)(=O)N4CCOCC4)cc3s2)cc(OC)c1OC	none (no result: A549 tox)
COc1cc(/C=C/C(=O)Nc2ccc(C)cc2)cc(OC)c1OC	none
C[n+]1ccc(/C=C/c2ccc([N+](C)(C)C)cc2)c2ccccc21	none (no result: Nrf2 ARE act, miR-21 reporter, p53 reactivation, Nrf2 inh, A549 tox)
CC1C(=O)Nc2ccc(S(=O)(=O)Nc3ccccc3Br)cc2NC1=O (stereo not given)	Nrf2 inh 16.4µM! (no result: p53 reactivation)
COc1ccc(C(=O)N(Cc2ccccc2)Cc2cccs2)c(O)c1	none (no result: Nrf2 ARE act, miR-21 reporter, ClpP mod, p53 reactivation)
COC(=O)C1=C(C)NC(C)=C(C(=O)OC)C1C(=O)OCC(=O)c1ccc(F)cc1	ClpP mod 31.6µM
COC(=O)C1=C(C)NC(C)=C(C(=O)OC)C1C(=O)OCC(=O)c1ccc(Br)cc1	none (no result: miR-21 reporter)
CCc1nc(NCCN)c(C#N)c2c1CSC(C)(C)C2	ClpP mod 22.4µM
CCc1nc(NCCC(C)C)c(C#N)c2c1CCCC2	ClpP mod 15.8µM
N#Cc1c(N2CCOCC2)nc(-c2ccco2)c2c1CCCC2	ClpP mod 35.5µM
CN(C)CCNc1nc(-c2ccco2)c2c(c1C#N)CC(C)(C)OC2	ClpP mod inconclusive (no result: A549 tox)
CC(C)CCNc1nc(-c2ccco2)c2c(c1C#N)CCCC2	ClpP mod 14.1µM
CCc1nc2n[nH]c(N)c2c2c1CSC(C)(C)C2	none
Cc1ccc(CNC(=O)c2ccc(-c3nc(CS(=O)(=O)c4ccc(C)cc4)c(C)o3)cc2)cc1	ClpP mod inconclusive (no result: p53 reactivation)
N#Cc1c(NCCN)nc(-c2ccco2)c2c1CCCC2	ClpP mod 8.91µM, Nrf2 inh inconclusive
CC1(C)Cc2c(C#N)c(NCc3ccco3)nc(-c3ccco3)c2CO1	ClpP mod 31.6µM
Cc1nc(NCc2ccco2)c(C#N)c2c1COC(C)(C)C2	ClpP mod inconclusive
COc1cccc(C2CC(c3cccs3)=NN2C(=O)CSc2nc3ccccc3o2)c1OC (stereo not given)	ClpP mod 8.91µM
CCC(=O)N1N=C(c2cccs2)CC1c1ccc(C)cc1 (stereo not given)	none
CCOC(=O)CCSCC(=O)N1N=C(c2cccs2)CC1c1ccc(C)cc1 (stereo not given)	ClpP mod 28.2µM
COc1ccc(C2CC(c3cccs3)=NN2C(=O)CSC2=NCCS2)cc1 (stereo not given)	Nrf2 inh 18.4µM
CCC(=O)N1N=C(c2cccs2)CC1c1ccc(OC)cc1 (stereo not given)	none
Cc1ccc(C2CC(c3cccs3)=NN2C(=O)CSC2=NCCS2)cc1 (stereo not given)	Nrf2 inh 16.4µM
COc1ccc(SCC(CC(C)C)N2CCN(C)CCC2=O)cc1 (stereo not given)	Nrf2 inh inconclusive (no result: Nrf2 ARE act, miR-21 reporter, ClpP mod, p53 reactivation)
COCCNC(=O)C1(C(F)(F)F)C/C(=C/CCO)CCCO1 (stereo not given)	none (no result: Nrf2 ARE act, miR-21 reporter, ClpP mod, p53 reactivation)
CCCCN(CC)C(=O)Cn1nc(C)c2c(C)n(-c3ccccc3)nc2c1=O	none (no result: p53 reactivation)
CCc1nn2c(=O)cc(-c3ccncc3)nc2s1	none (no result: Nrf2 ARE act, miR-21 reporter, ClpP mod, p53 reactivation)
COc1ccc(C2Nc3ccccc3C(=O)N2CC(C)(C)C)cc1COc1ccc(NC(C)=O)cc1 (stereo not given)	none (no result: Nrf2 ARE act, miR-21 reporter, ClpP mod, p53 reactivation)
CC1=C(C(=O)Nc2cccnc2)C(c2ccccc2)n2nc(SCc3ccccc3Cl)nc2N1 (stereo not given)	none (no result: p53 reactivation)
Cc1ccccc1OCC(=O)N/N=C/c1cc2ccccc2nc1Cl	Nrf2 inh 18.4µM
C=CCc1ccc(O)c(-c2ccc(O)c(CC=C)c2)c1	none
COC(=O)C1=C(N)Oc2cc(C)n(C)c(=O)c2C1c1ccc(Cl)c(Cl)c1 (stereo not given)	none
COC(=O)C1=C(N)Oc2cc(C)n(CC3CCCO3)c(=O)c2C1c1ccc(Cl)c(Cl)c1 (stereo not given)	Nrf2 inh 20.6µM
COc1ccccc1N1CCN(C(=O)C2CCN(S(=O)(=O)Cc3ccccc3)CC2)CC1	none (no result: p53 reactivation)
O=C(CCN=C1NS(=O)(=O)c2ccccc21)OCc1nnc(-c2ccc([N+](=O)[O-])cc2)o1	ClpP mod 28.2µM (no result: miR-21 reporter)
N#Cc1ccccc1COC(=O)CCN=C1NS(=O)(=O)c2ccccc21	Nrf2 inh inconclusive (no result: miR-21 reporter, ClpP mod)
COc1ccc(/C=C/c2sc3ccccc3[n+]2CCCCI)cc1OC	none (no result: Nrf2 ARE act, miR-21 reporter, p53 reactivation, Nrf2 inh, A549 tox)
COc1cc(/C=C/c2sc3ccccc3[n+]2CCCS(=O)(=O)[O-])ccc1O	Nrf2 inh inconclusive, A549 tox 11.6µM (no result: ClpP mod)
Cn1c(=O)oc2cc(S(=O)(=O)N3CCCC(C(=O)NCCc4ccccc4)C3)ccc21 (stereo not given)	none (no result: p53 reactivation)
CCN(CC)S(=O)(=O)c1ccc(S(=O)(=O)N2CCCC(C(=O)NC3CC3)C2)cc1 (stereo not given)	Nrf2 inh 5.8µM (no result: ClpP mod)
CCOC(=O)C1CCCN(S(=O)(=O)c2ccc(S(=O)(=O)N(CC)CC)cc2)C1 (stereo not given)	Nrf2 inh inconclusive
CN(C)S(=O)(=O)c1ccc(S(=O)(=O)N2CCCC(C(=O)NC3CC3)C2)cc1 (stereo not given)	Nrf2 inh 20.6µM (no result: ClpP mod)
Cc1sc2nc3c4ccccc4c(NCc4ccco4)nn3c(=O)c2c1C	ClpP mod 25.1µM, p53 reactivation inconclusive, Nrf2 inh inconclusive
Cc1nc(NCc2ccco2)c2c(C)c(C)sc2n1	miR-21 reporter inconclusive, A549 tox inconclusive (no result: Nrf2 inh)
Clc1ccc(-c2nnc(Sc3nc4ccccc4o3)c3ccccc23)cc1	Nrf2 ARE act inconclusive, Nrf2 inh 18.4µM
COC(=O)c1ccc2nc(NC(=O)C(C)(C)C)sc2c1	miR-21 reporter inconclusive, Nrf2 inh 4.11µM (no result: ClpP mod)
COC(=O)c1ccc2nc(NC(=O)C3CCCCC3)sc2c1	Nrf2 inh inconclusive
COC(=O)c1ccc2nc(Nc3nc4ccc(F)cc4s3)sc2c1	ClpP mod 17.8µM, Nrf2 inh inconclusive
O=[N+]([O-])c1ccc(O)c(/C=N/Nc2ccc(Cl)nn2)c1	p53 reactivation inconclusive, Nrf2 inh 3.66µM, A549 tox inconclusive
O=C1c2ccccc2-c2onc3c(NCCO)cc(NC4CCCCC4)c1c23	miR-21 reporter inconclusive, Nrf2 inh 20.6µM, A549 tox inconclusive (no result: p53 reactivation)
O=C(O)CCNc1cc(N2CCN(C(=O)c3ccco3)CC2)c2noc3c2c1C(=O)c1ccccc1-3	Nrf2 inh inconclusive, A549 tox 18.4µM (no result: ClpP mod)
